Literature values as cited in US11432959B2, “Porous structures for extended release drug delivery devices” (ForSight Vision4, Inc., priority 2015, dated 2022).

Settings: bovine serum albumin in water at 20° C. (Molokhia et al, Exp Eye Res 2008)

Q: With bovine serum albumin [BSA] as the substance, how does the “Diffusion coefficient (D)” value read?
A: 6.1 e-7 cm^2/s
